Literature values as cited in article PMC3642142.

Columns and labels:
[1] = biological target: L-selectin LSEL15 peptide 311-325 (Homo sapiens) (UniProt P14151); settings: cited from earlier work
[2] = biological target: L-selectin CLS transmembrane and cytoplasmic domains (Homo sapiens) (UniProt P14151); settings: cited from earlier work

Calmodulin (from UniProt P0DP23)
Kd [1]: 0.043 µM | Kd [2]: 2 µM
